Legend:
[1] = tested on: A549; assay: Western blot of HIF-1α, fibrosis and EMT markers in A549; assay type: cell-based, human
[2] = tested on: A549; assay: Scratch migration assay; assay type: cell-based, human; details: CoCl2 or FG-4592 treatment

Compound | fibronectin and COL4A6 expression (Western blot) ([1]; TGF-β1-treated A549, PX-478 co-treatment) | fibrosis-associated proteins (fibronectin, α-SMA, COL3A1, COL4A6) ([1]; A549, ambient air, CoCl2 200 μM, FG-4592 50 μM) | cell migration (wound healing) [2]
N[C@@H](Cc1ccc([N+]([O-])(CCCl)CCCl)cc1)C(=O)O | significantly suppressed fibrosis |  | 
CoCl2 |  | increased expression of fibrosis-associated proteins | significant increase in cell migration

Reference: paper PMC12721191, “Oxidative hypoxia drives TGF-β1–induced fibrosis under normoxia” (Redox Biology, 2025)
